By UniProt entry, the sequences of proteins in these tests, tags left out. Where a name states a change or a piece, a line headed by the entry shows the natural chain unless it says otherwise.
UniProt P30305: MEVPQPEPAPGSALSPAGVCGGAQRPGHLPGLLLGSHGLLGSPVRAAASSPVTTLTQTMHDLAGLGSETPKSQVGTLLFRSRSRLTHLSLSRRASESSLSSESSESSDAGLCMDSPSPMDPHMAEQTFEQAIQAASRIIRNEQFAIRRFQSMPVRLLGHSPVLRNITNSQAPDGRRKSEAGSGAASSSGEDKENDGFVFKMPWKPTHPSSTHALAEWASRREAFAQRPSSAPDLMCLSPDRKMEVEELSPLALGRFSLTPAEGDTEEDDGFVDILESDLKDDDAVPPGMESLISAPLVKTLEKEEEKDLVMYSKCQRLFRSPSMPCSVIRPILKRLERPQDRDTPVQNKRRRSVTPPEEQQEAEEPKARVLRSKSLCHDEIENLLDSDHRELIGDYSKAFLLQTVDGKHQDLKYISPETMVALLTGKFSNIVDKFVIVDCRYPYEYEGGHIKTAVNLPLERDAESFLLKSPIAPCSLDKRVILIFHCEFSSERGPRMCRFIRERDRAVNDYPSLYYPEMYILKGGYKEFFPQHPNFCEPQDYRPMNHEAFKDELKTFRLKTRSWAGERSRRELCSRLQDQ

The list shows a part of the results, in another mix than the full data. Calls of active or inactive are those of the source. Cut-off read from the data, not from the text of the source: active = inhibition above about 50%; inactive = the rest.
The compounds below were run against M-phase inducer phosphatase 2 (Homo sapiens) (UniProt P30305) (assay: human Cdc25B tyrosine phosphatase blockers – biochemical, OMFP fluorescence, catalytic domain, primary screen (AID 368)). Conditions: recombinant Cdc25B, OMFP fluorescence Ex485/Em525; active compounds read high;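 compounds tested at 10 µM final in the well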.
In the case of O=C(COc1ccccc1)OC1CN2CCC1CC2 (stereo not given), the inhibition is reported as inactive: 0.358%.
COP1(=S)c2c(C)nn(CCC#N)c2N=C(c2ccc(F)cc2)N1C (stereo not given) was tested, and the inhibition was inactive: -26%.
O=C(OC1CN2CCC1CC2)C12CC3CC(CC(C3)C1)C2 (stereo not given) was tested, and the inhibition was inactive: -3.87%.
For Cc1cccc(OCC(=O)OC2CN3CCC2CC3)c1 (stereo not given), the inhibition was inactive: -30.4%.
With CCOP1(=S)c2c(C)nn(CCC#N)c2N=C(c2ccccc2F)N1C (stereo not given) the inhibition was inactive: -2.04%.
O=P(Nc1nccs1)(c1ccccc1)c1nc2ccccc2s1 (stereo not given) was tested, and the inhibition was inactive: -1.75%.
In the case of CCOP1(=S)c2c(C)nn(CCC#N)c2N=C(c2ccc(F)cc2)N1C (stereo not given), the inhibition is reported as inactive: -11.9%.
For Cc1nn(-c2ccccc2)c2c1P(=O)(N1CCOCC1)N(C)C(c1ccccc1)=N2 (stereo not given), the inhibition was inactive: -9.77%.
For Cc1ccc(OCC(=O)OC2CN3CCC2CC3)cc1 (stereo not given), the inhibition was inactive: -36.7%.
In the case of O=P1(Nc2ccc(Br)cn2)COc2ccccc2OC1, the inhibition is reported as inactive: -1.01%.
In the case of O=P1(Nc2ncccn2)COc2ccccc2OC1, the inhibition is reported as inactive: 3.6%.
With Clc1n[nH]nc1-c1nn[nH][15n]1 the inhibition was inactive: -13.5%.
For O=P1(Nc2ccccn2)COc2ccccc2OC1, the inhibition was inactive: -3.72%.
With c1nnnn1CCn1cnnn1 the inhibition was inactive: 7.01%.
In the case of O=P(Nc1nccs1)(c1ccccc1)c1ccccc1, the inhibition is reported as inactive: -15.1%.
For O=C(OC1CN2CCC1CC2)c1cccc(Cl)c1 (stereo not given), the inhibition was inactive: -4.45%.
With COC(=O)c1cc2c(s1)N=C(c1ccccc1)N(C)P2(=O)N1CCOCC1 (stereo not given) the inhibition was inactive: -7.31%.
For O=P1(Nc2nc3ccc(Cl)cc3s2)COc2ccccc2O1 (stereo not given), the inhibition was inactive: 3.31%.
For Cc1c2non([O-])c-2c(C)[n+](=O)[n+]1[O-], the inhibition was inactive: -11.2%.
For CCc1nc2c(n1)c1c(non1O)c1c2no[n+]1[O-], the inhibition was inactive: 2.35%.

From PubChem BioAssay AID368 (University of Pittsburgh Molecular Library Screening Center, 2006)
